Laboratory results published in patent publication US8541175B2, “Detection of molecular interactions using a reduced affinity enzyme complementation reporter system” (The Board of Trustees of the Leland Stanford Junior …, priority 2006, dated 2013).

System: EGFR on the cell surface
Experiment: EGFR internalization by flow cytometry, C2C12 cells overexpressing wild-type EGFR and ErbB2
Assay type: cell-based
Details: 5 ug/ml antibody 10 min prior to EGF
Description: To test this hypothesis, the wildtype EGFR and wildtype ErbB2 were co-expressed in cells and EGFR on the cell surface was quantitated by flow cytometry (FIG. 7B).
Isoproterenol, propranolol and rapamycin were from Sigma.

With “Herceptin: monoclonal antibody against ErbB2, binds the juxtamembrane domain of ErbB2” the “EGFR on the cell surface upon EGF treatment” value was “rapid loss of EGFR from the cell surface”.
